In assay [1] the target is αA-crystallin R12A mutant (human) (UniProt P02489).
The target is the same in assay [2]. The assay is described as follows: membrane filtration equilibrium binding (Scatchard plot); 12.5 µM wild-type or mutant small heat shock protein incubated 1 hr at 60°C with 2–18 µM γ-crystallin in 50 mM phosphate buffer, 100 mM NaCl, pH 7.2; unbound substrate separated through a 100-kDa cut off Microcon filter; n per subunit of chaperone.
For assay [3], the target named is wild-type human αA-crystallin (human) (UniProt P02489). The assay is described as above.

Protein sequences, listed by entry. Tags and fused reporters are not part of them. Lines headed by an entry give the natural chain unless they say otherwise; changes in a name come on top.
UniProt P02489, whole entry R12A: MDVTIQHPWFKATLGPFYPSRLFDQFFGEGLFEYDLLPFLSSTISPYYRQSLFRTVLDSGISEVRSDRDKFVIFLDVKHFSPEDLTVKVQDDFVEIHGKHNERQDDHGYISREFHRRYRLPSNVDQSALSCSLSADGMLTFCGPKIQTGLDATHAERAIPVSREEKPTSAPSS
UniProt P02526: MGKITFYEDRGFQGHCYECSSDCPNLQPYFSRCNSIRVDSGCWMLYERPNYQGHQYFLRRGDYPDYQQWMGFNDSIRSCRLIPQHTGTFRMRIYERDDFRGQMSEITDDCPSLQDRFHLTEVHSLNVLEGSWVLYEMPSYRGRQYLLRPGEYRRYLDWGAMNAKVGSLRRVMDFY

The substance “bovine γ-crystallin (from UniProt P02526 1-175) (natural protein)” had an increase in the chaperone function compared to the Wt protein, γ-crystallin as client protein (thermal aggregation assay) in assay [1] of 15%. Further, in assay [2], the dissociation constant (Kd) (commonly the concentration at which binding is half-saturated) came out at 8.07 µM and the stoichiometry N (commonly a count of units in the complex or per binding partner) came to 4.68. For the same substance, in assay [3], the Ka came to 118000 M⁻¹ and the Kd worked out at 8.44 µM.
